The text below walks through data of article PMC6058667, “Modified mixed nanomicelles with collagen peptides enhanced oral absorption of Cucurbitacin B: preparation and evaluation” (Drug Delivery, 2018).

The subject of one data set is Caco-2 cell monolayer. Description: Transcellular transport across Caco-2 cell monolayer. As for the experimental part:
The plates were incubated at 37 °C. […] All experiments were performed in triplicate.

Data set [1] can be described thus: In vitro CuB release (dialysis bag). Type of data set: physicochemical. As to conditions: PBS pH 6.8 with 0.5% SDS, 37 °C, 24 h. As for the experimental part:
The in vitro release behavior of CuB from CuB-MMs-CPs micelles was monitored in a phosphate buffered saline (PBS) (PH 6.8) medium containing 0.5% sodium dodecyl sulfate (SDS) to obtain pseudo sink conditions. Briefly, aliquots of CuB-MMs-CPs micelles were introduced into a dialysis bag (MWCO =2000 Da), the sealed end of which was immersed fully into 40 mL of a release medium at 37 °C. This medium was stirred at 100 rpm for 24 h. At fixed time intervals, 1 mL aliquots were withdrawn and replaced with an equal volume of fresh medium. CuB release from the stock solution was conducted under the same conditions as the controls. The concentration of CuB in the samples was determined by HPLC.

With Cucurbitacin B [CuB], in the data set with Caco-2 cell monolayer (4 °C versus 37 °C), the “Effect of temperature on quantity of cellular transportation, AP side to BL side” value is reported as “no significant effect” and the “Effect of temperature on quantity of cellular transportation, BL side to AP side” value is “significantly reduced”. In addition, the “Effect of endocytosis inhibitor chlorpromazine on Caco-2 cell transportation” value with Caco-2 cell monolayer (with chlorpromazine) was “no significant effect”. The “Effect of endocytosis inhibitor indomethacin on Caco-2 cell transportation” value in the data set with Caco-2 cell monolayer (with indomethacin) is listed as “no significant effect”. In addition, the “Effect of ATP inhibitor sodium azide on Caco-2 cell transport capacity of CuB” value in the data set on Caco-2 cell monolayer (with sodium azide) was “increased significantly”. The “Effect of efflux inhibitor verapamil on Caco-2 cell transport capacity of CuB” value with Caco-2 cell monolayer (with verapamil) was “increased significantly”. Also, the “Release behaviour of CuB” value in data set [1] is “initial burst release in 4 h”.
